Molecular target: T1, Soluble KDR receptor (UniProt P35968 20-764, limits assumed)
T1 construct: May be the KDR-Fc fusion
Assay: SPR (Biacore 3000), soluble KDR immobilised

Amino acid sequences for entries named in this document (tags omitted). Residues count along the entry.
UniProt P35968, 20-764 limits assumed: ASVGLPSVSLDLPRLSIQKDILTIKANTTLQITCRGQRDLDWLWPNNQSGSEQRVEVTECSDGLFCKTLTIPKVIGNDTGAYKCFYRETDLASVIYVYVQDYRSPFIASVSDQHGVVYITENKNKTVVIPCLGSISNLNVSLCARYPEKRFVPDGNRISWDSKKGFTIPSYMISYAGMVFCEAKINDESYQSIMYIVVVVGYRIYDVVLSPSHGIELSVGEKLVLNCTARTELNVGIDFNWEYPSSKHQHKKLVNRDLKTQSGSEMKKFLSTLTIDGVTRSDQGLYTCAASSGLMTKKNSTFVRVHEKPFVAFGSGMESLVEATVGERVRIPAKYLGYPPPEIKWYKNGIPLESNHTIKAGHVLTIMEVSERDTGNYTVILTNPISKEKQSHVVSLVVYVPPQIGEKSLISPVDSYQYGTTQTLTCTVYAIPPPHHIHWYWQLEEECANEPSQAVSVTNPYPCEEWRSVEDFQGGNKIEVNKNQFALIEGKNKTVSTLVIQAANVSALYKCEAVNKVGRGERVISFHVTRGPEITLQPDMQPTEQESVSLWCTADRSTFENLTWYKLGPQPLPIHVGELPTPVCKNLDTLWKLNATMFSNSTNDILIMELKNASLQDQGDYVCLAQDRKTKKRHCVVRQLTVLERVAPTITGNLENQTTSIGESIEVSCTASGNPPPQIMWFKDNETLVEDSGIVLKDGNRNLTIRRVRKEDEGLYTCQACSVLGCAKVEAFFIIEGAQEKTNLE

| Kd | Binder |
| --- | --- |
| 1260 nM | AQAFPRFGGDDYWIQQYLRYTDGGK (Ac-; -NH2, also called P10-D; monomeric P10) [P10] |
| 732 nM | AQEPEGYAYWEVITLYHEEDGDGGK (Ac-; -NH2, also called P9-D; monomeric P9) [P9] |

From US20040210041A1 (published 2004)
